# PABP polyA inh = PABP-poly(A) binding inhibition; P11940; PABP-poly(A) RNA binding, fluorescence polarization; calls only at 35 µM; hit rate 1% among 290,000; AID 2014;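 also: calls also rest on retests at 20 µM and on dose response follow-up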
# eIF4H inh = inhibitors of RNA binding by human eIF4H; eIF4H fluorescence polarization binding assay; inhibition, % at 35 µM; hit rate 0.94% among 290,000;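 also: calls also rest on retests at 20 µM and on dose response follow-up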
# Pemphigus Ab inh = human desmoglein-3 autoantibody binding inhibition; P32926; DSG3-coupled beads, scFv-anti-DSG3-GFP binding, flow cytometry; hits give low values; binding (percent of control), % at 10 µM; hit rate 0.48% among 310,000; AID 588358;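 active = binding more than 3 SD below its plate's average and above zero; inconclusive = below that plate limit but binding exactly zero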;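 also: hits lower antibody fragment binding to DSG3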
# MLLE-PAM2 inh = blocks PAM2 peptide binding to the PABP1 MLLE domain; GST-MLLE / FITC-PAM2 fluorescence polarization; inhibition, % at 20 µM; hit rate 0.36% among 360,000; in the data active = inhibition above about 35%, passing the limit was not always enough;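 also: plate controls were DMSO wells with GST-MLLE for no effect and wells lacking GST-MLLE protein for full effect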
# Yeast UUG start = alters start codon recognition fidelity in yeast; AID 602363; activity score, % at 18.7 µM; 350,000 tested, 0.13% active; S. cerevisiae UUG-firefly luciferase reporter, luminescence/redox ratio;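 active means replicate mean at a twofold rise or more, about +100% in these data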;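 further: firefly luciferase made from a UUG start codon reports start codon fidelity; reporter light over untreated wells divided by growth signal over untreated wells; some hits fall short of that in this replicate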
# * = called active by the depositor; i = inactive; ? = inconclusive; / = no result given; + = active, no number. A selection: hits, their analogues and other compounds. The true share with any hit is near 1.5%. Unless noted, no rule for the calls is given here.
1) C[C@@H]1CN([C@@H](C)CO)C(=O)c2cc(NS(=O)(=O)c3cccs3)ccc2O[C@H]1CN(C)Cc1ccc2c(c1)OCO2
2) CN(C)N1C(=O)/C(=C/c2ccco2)SC1=Nc1ccccc1
3) O=C1/C(=C\c2ccc(Br)o2)SC(=Nc2ccccc2)N1c1ccccc1
4) CC(C)C(=O)N(c1ccc2oc(=O)sc2c1)S(=O)(=O)c1cccs1
5) O=C1C=C(NCCc2cc(Br)c(O)c(Br)c2)C(=O)c2ncccc21
6) CN(Cc1ccccc1)C(=O)C1CCN(S(=O)(=O)c2ccc3nc4c(c(C(=O)O)c3c2)CCCC4)CC1
7) CO[C@@H]1CN(C)C(=O)c2ccc(NS(C)(=O)=O)cc2OC[C@H](C)N(C)C[C@@H]1C
8) CCC1=NN2C(=N)/C(=C/c3c(C)nn(-c4ccccc4)c3Cl)C(=O)N=C2S1
9) CCC1=NN2C(=N)/C(=C/c3ccc(OS(=O)(=O)c4ccccc4)c(OC)c3)C(=O)N=C2S1
10) C[C@@H]1CCCCO[C@H](CN(C)Cc2ccncc2)[C@@H](C)CN([C@H](C)CO)C(=O)c2cc(NC(=O)Nc3ccc(C(F)(F)F)cc3)ccc2O1

assay / entry	1	2	3	4	5	6	7	8	9	10
PABP polyA inh	/	/	+	i	/	i	/	+	i	/
eIF4H inh	/	/	55*	-1	/	66*	/	74*	-22	/
Pemphigus Ab inh	/	/	/	102	58*	/	/	/	100	/
MLLE-PAM2 inh	/	11	9	44*	23	-6	/	3	15	/
Yeast UUG start	-6	/	-10	-7	/	-20	1	/	-23	1

11) Cc1ccc(CSc2nnc(SCC(=O)N/N=C/C=C/c3ccco3)s2)cc1
12) CC(/C=N/NC(=O)CSc1nnc(SCc2ccccc2)s1)=C\c1ccco1
13) Cc1noc(C)c1NC(=O)N1C[C@@H](O)COC[C@H]2O[C@@H](CC(=O)NCC3CC3)CC[C@@H]21
14) CCC(=O)NC[C@@H]1[C@@H](c2ccccc2)[C@@H](CO)N1C(=O)C1CC1
15) Cc1ccc(NC(=O)c2cccc(C(=O)Nc3ccc(C)cc3C(=O)O)c2)c(C(=O)O)c1
16) Cc1ccc(S(=O)(=O)CCSc2cccc(C(=O)Nc3ccccc3C(=O)O)c2)cc1
17) CC(C)NC(=O)N(C)C[C@H]1OCCCC[C@H](C)Oc2ccc(NC(=O)NC3CCCCC3)cc2C(=O)N([C@@H](C)CO)C[C@H]1C
18) CCN(CC)CCOC(=O)C(c1ccccc1)c1ccccc1
19) CCN(CC)CCSC(=O)C(c1ccccc1)c1ccccc1
20) N#C/C(=C(/O)CCl)c1nc2ccccc2[nH]1

assay / entry	11	12	13	14	15	16	17	18	19	20
PABP polyA inh	i	+	/	/	i	i	/	i	/	+
eIF4H inh	84	69*	/	/	-5	1	/	-8	/	?
Pemphigus Ab inh	79	100	/	/	97	81	/	114	/	104
MLLE-PAM2 inh	-82	-100	/	/	14	36*	/	-11	47*	-15
Yeast UUG start	/	/	0	26	-14	-22	-17	-6	-15	/

21) N#C/C(=C(\O)Cc1ccccc1)c1nc2ccccc2[nH]1
22) c1ccc2sc(SN3CCOCC3)nc2c1
23) CC(NC(=O)c1ccccc1F)c1nnc(SCC(=O)NC2=NCCS2)n1C (configuration not stated)
24) C[C@@H]1CN([C@H](C)CO)C(=O)c2cc(NS(=O)(=O)c3cn(C)cn3)ccc2O[C@@H](C)CCCCO[C@@H]1CN(C)S(=O)(=O)c1cn(C)cn1
25) CN(C)S(=O)(=O)c1ccc(N2CCCC2)c(C(=O)Nc2nc3ccc(F)cc3s2)c1
26) COC(=O)CNC(c1ccccc1)c1cc(Br)ccc1NC(C)=O (configuration not stated)
27) COC(=O)CNC(c1ccccc1Cl)c1cc(Br)ccc1NS(=O)(=O)c1ccc(C)cc1 (configuration not stated)
28) COc1cccc(-c2ccc([C@@H]3[C@@H](CO)N4CCCCN(C(=O)NC(C)C)C[C@@H]34)cc2)c1
29) COc1cccc(CNC(=O)[C@H]2[C@H](CO)[C@H]3Cn4c(cccc4=O)[C@@H]2N3C(=O)C2CCC2)c1
30) O=c1c2ccccc2nc(-c2ccco2)n1/N=C/c1ccco1

assay / entry	21	22	23	24	25	26	27	28	29	30
PABP polyA inh	i	i	+	/	+	i	i	/	/	+
eIF4H inh	2	-4	90*	/	active	-3	active	/	/	97*
Pemphigus Ab inh	99	80*	108	/	119	104	110	/	/	104
MLLE-PAM2 inh	-2	5	-2	/	4	12	-2	/	/	6
Yeast UUG start	-9	-5	-13	3	-22	/	-24	-15	8	-19

# Excerpt: entries 21–22
21) N#C/C(=C(\O)Cc1ccccc1)c1nc2ccccc2[nH]1
22) c1ccc2sc(SN3CCOCC3)nc2c1

assay / entry	21	22
PABP polyA inh	i	i
eIF4H inh	2	-4
Pemphigus Ab inh	99	80*
MLLE-PAM2 inh	-2	5
Yeast UUG start	-9	-5

# (more compounds)
31) Cc1nc2ccccc2c(=O)n1/N=C/c1ccco1
32) COc1cc(C(=O)NNC(=S)NC(=O)c2ccc(Cl)cc2)cc(OC)c1OC
33) COc1ccc(C(=O)NNC(=S)NC(=O)c2ccc(Cl)cc2)cc1
34) Cc1nn(-c2ccccc2)nc1-c1nnc(-c2ccc(C(F)(F)F)cc2)o1
35) C[C@@H]1CN([C@H](C)CO)S(=O)(=O)c2ccc(/C=C/c3ccccc3)cc2O[C@@H]1CN(C)C
36) C[C@@H]1CN([C@H](C)CO)C(=O)c2cc(NC(=O)Nc3cccc4ccccc34)ccc2O[C@@H](C)CCCCO[C@H]1CN(C)Cc1ccccc1
37) C[C@H](CO)N1C[C@H](C)[C@@H](CN(C)C(=O)NC2CCCC2)Oc2ncc(-c3ccncc3)cc2C1=O
38) O=C(/C=C/c1ccco1)NCC1OCCc2ccccc21 (configuration not stated)
39) COc1ccc(S(=O)(=O)Nc2ccc3c(c2)C(=O)N(C)C[C@@H](OC)[C@H](C)CN(C)[C@H](C)CO3)cc1
40) C/C(=N\NC(=O)c1cccc(N/N=C(\C)c2ccco2)c1)c1ccco1

assay / entry	31	32	33	34	35	36	37	38	39	40
PABP polyA inh	i	i	/	i	/	/	/	+	/	+
eIF4H inh	6	12*	/	-9	/	/	/	87*	/	90*
Pemphigus Ab inh	103	107	96	76*	/	/	/	/	/	88
MLLE-PAM2 inh	-2	16	/	-6	/	/	/	11	/	-19
Yeast UUG start	-17	-18	/	-7	11	37	3	-1	7	/

41) C/C(=N\NC(=O)c1cccc([N+](=O)[O-])c1)c1ccco1
42) Cc1ccc(-c2nc(CSCC(=O)N3CCN(c4ccccn4)CC3)c(C)o2)cc1
43) CCc1ccc(-c2nc(CSCC(=O)N3CCN(c4ccccn4)CC3)c(C)o2)cc1
44) Cc1ccc(S(=O)(=O)Nc2ccc3c(c2)C(=O)N([C@H](C)CO)C[C@H](C)[C@@H](CN(C)CC2CC2)OCCCC[C@@H](C)O3)cc1
45) O=C(c1ccco1)N1CCN(C(=O)c2cc(-c3ccccn3)nc3ccc(Cl)cc23)CC1
46) CC(C)NC(=O)N1[C@H](CO)[C@H]2c3ccccc3N(C(=O)Nc3ccccc3)C[C@H]21
47) O=C(/C=C/c1ccco1)NC(=S)NNC(=O)c1ccco1
48) O=C(/C=C/c1ccco1)NC(=S)Nc1ccc(Cl)cn1
49) CC(=O)NC(=S)Nc1ccc(NC(=S)NC(=O)/C=C/c2ccco2)cc1
50) O=C(/C=C/c1ccco1)NC(=S)Nc1ccc(C(=O)O)cc1
51) O=C(/C=C/c1ccco1)Nc1cccc(C(=O)Nc2ccccc2C(=O)O)c1
52) Cc1ccnc(NC(=S)NC(=O)/C=C/c2ccco2)c1

assay / entry	41	42	43	44	45	46	47	48	49	50	51	52
PABP polyA inh	?	i	i	/	i	/	+	+	/	+	+	i
eIF4H inh	?	-5	-10	/	100*	/	92	71	/	97*	89*	57
Pemphigus Ab inh	97	107	/	/	98	/	60*	109	/	97	101	91
MLLE-PAM2 inh	10	5	39*	/	-1	/	7	-30	14	14	-20	8
Yeast UUG start	-19	-2	-7	5	/	-7	-44	-34	/	/	10	/

# Looked up one by one from the entries so far:
51) O=C(/C=C/c1ccco1)Nc1cccc(C(=O)Nc2ccccc2C(=O)O)c1
50) O=C(/C=C/c1ccco1)NC(=S)Nc1ccc(C(=O)O)cc1

assay / entry	51	50
PABP polyA inh	+	+
eIF4H inh	89*	97*
Pemphigus Ab inh	101	97
MLLE-PAM2 inh	-20	14
Yeast UUG start	10	/

# From PubChem BioAssay
